# Only a part is listed here, and it is no random draw. Activity calls are given as the source filed them. No stated cut-off is given here; in the data, active means response below about 60% or above about 140%; inactive means in between.
# Sequences of proteins named here, by UniProt entry; tags and fusion partners are left off.
# UniProt P09471, whole entry: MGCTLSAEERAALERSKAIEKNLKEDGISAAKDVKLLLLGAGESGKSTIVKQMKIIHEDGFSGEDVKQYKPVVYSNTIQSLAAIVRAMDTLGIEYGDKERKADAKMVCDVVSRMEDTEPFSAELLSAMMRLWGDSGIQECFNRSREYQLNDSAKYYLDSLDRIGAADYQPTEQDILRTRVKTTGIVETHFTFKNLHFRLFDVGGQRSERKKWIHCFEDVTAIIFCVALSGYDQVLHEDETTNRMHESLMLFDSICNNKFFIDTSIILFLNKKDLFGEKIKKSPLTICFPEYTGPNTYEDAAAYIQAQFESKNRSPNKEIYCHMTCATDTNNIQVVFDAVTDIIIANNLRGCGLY
# Molecular target: Guanine nucleotide-binding protein G(o) subunit alpha (Homo sapiens) (UniProt P09471)
# Experiment: compounds changing RGS8 association with Galphao – biochemical, multiplexed bead flow cytometry, primary screen (AID 1423);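 further: Galphao activated as the GDP aluminium fluoride complex binding bead-coupled RGS8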
# Conditions: at 10 µM, actives lie on both sides
row,Compound,response (percent of control binding)
1,Cc1ccc(OCC(C)C)c(CN(CCCl)CCCl)c1,inactive: 104%
2,COc1ccc(NC2CCN(CCc3ccccc3)CC2)c(OC)c1,inactive: 100%
3,CCOc1ccc(C)cc1CN(CCCl)CCCl,inactive: 102%
4,CCOC(=O)N1CCC(Nc2ccc(OC)cc2)CC1,inactive: 102%
5,O=C(OC1CN2CCC1CC2)C1c2ccccc2Oc2ccccc21 (centres undefined),inactive: 95.7%
6,N#CC1(Nc2ccccc2)CCN(Cc2ccccc2)CC1,inactive: 106%
7,O=C(NCC1(N2CCOCC2)CCCCC1)c1cc2ccccc2o1,inactive: 137%
8,COc1ccc(C(=O)NCC2(N3CCCCC3)CCCCC2)c(OC)c1OC,inactive: 102%
9,COc1ccc(CN(CCCl)CCCl)cc1Cl,inactive: 99.9%
10,CN(C)c1cccc(C(=O)NCC2(N3CCCCC3)CCCCC2)c1,inactive: 96.1%
11,CC(C)c1ccc(NC2CCN(C(=O)OC(C)(C)C)CC2)cc1,inactive: 104%
12,CN1CCN(CCOC(=O)C(O)(c2ccccc2)c2ccccc2)CC1,inactive: 101%
13,COc1ccc(NC2CCN(C(=O)OC(C)(C)C)CC2)cc1,inactive: 101%
14,O=C(NCC1(N2CCOCC2)CCCCC1)c1cc(=O)[nH]c2ccccc12,inactive: 101%
15,O=C(NCC1(N2CCCCC2)CCCCC1)c1cccc([N+](=O)[O-])c1,inactive: 100%
16,N#CC1(Nc2ccccc2)CCN(CCc2ccccc2)CC1,inactive: 102%
17,c1ccc(CN2CCC(Nc3ccccc3)CC2)cc1,inactive: 98.3%
18,N#Cc1ccc(C(=O)NCC2(N3CCCCC3)CCCCC2)cc1,inactive: 104%
19,O=C(OC1CN2CCC1CC2)C1c2ccccc2C=Cc2ccccc21 (centres undefined),inactive: 96.8%
20,N/C(=N\O)c1c(N)no[n+]1[O-],inactive: 96.5%
21,COc1ccc(C(=O)NCC2(N3CCOCC3)CCCCC2)cc1OC,inactive: 101%
22,CCCOc1ccc(C)cc1CN(CCCl)CCCl,inactive: 94.5%
23,CCC(CO)(C(=O)OC1CN2CCC1CC2)c1ccccc1 (centres undefined),inactive: 98.1%
24,COc1cc(OC)cc(C(=O)NCC2(N3CCOCC3)CCCCC2)c1,inactive: 99.3%
25,CC(C)(C)OC(=O)N1CCC(Nc2ccccc2)CC1,inactive: 100%
26,CCOc1ncccc1C(=O)NCC1(N2CCOCC2)CCCCC1,inactive: 122%
27,CN(C)c1ccc(C(=O)NCC2(N3CCCCC3)CCCCC2)cc1,inactive: 94.9%
28,CCN1CCC(Nc2cccc(F)c2)CC1,inactive: 100%
29,Fc1ccccc1NC1CCN(Cc2ccccc2)CC1,inactive: 96.3%

# Source: PubChem BioAssay AID1423 (NMMLSC, 2008)
